Out of some 55,000 compounds screened, about 530 (0.96%) were called active. Only results without a clear call are listed here; the source files them as inconclusive. Calls follow the shape of the dose curve; as a rule, active = well fitted cell-killing curve with a large enough effect; inconclusive = small, poorly fitted or top-dose-only effect; inactive = no such curve, though single readings can be large or run the other way.
Assay: qHTS Screen for Compounds that Selectively Target Cancer Cells with p53 Mutations: Cytotoxicity of p53 Null Cells at the Nonpermissive Temperature; also: nearly all actives have a fitted effect of over 50% in size
Settings: H1299 p53-null (neo) cells, 39C, ATPlite viability, 24 h
Excerpt: NIH Chemical Genomics Center [NCGC] NIH Molecular Libraries Screening Centers Network [MLSCN] MLSCN Grant: 1 X01 MH079844-01 Assay Submitter (PI): Dr. SUN, YI, University of Michigan NCGC Assay Overview: Synthetic Lethal Screen for Compounds to Kill Cancer Cells with p53 Mutation. Tumor suppressor gene p53 serves as a major cellular barrier against tumorigenesis. […] The goal of this screening is to identify small molecule probes that selectively kill cancer cells with mutations in p53. This screening was carried out using two lines of H1299 lung cancer cells. […] Concentration-responses of all the compounds in the library collection were determined in qHTS using the cell lines and temperature conditions as above.
NCGC Assay Protocol Summary: Both the H1299-p53A138V and H1299-neo cell lines were provided by Dr.Yi Sun, a PI at the University Michigan. […] AC50 values were determined from concentration-response data modeled with the standard Hill equation. […] Detection; Luminescence; Viewlux plate reader Keywords: p53, synthetic lethal, cancer, cell viability, cytotoxicity, H1299 cell line, luminescence, MLSMR, MLSCN, NIH Roadmap, qHTS, NCGC
Potency is read from the fitted curve at half-maximal effect.

| SMILES | Potency |
| --- | --- |
| ClCCSc1nnc(-c2cccnc2)o1 | inconclusive: 20 µM |

Source: PubChem BioAssay AID904 (National Center for Advancing Translational Sciences (NCATS), 2007)
